From US20240092759A1, “Non-Covalent Inhibitors of the Main Protease of SARS-CoV-2 and Methods of Use” (YALE UNIVERSITY, priority 2021, published 2024)

Target: recombinant SARS-Cov-2 M^pro (Severe acute respiratory syndrome coronavirus 2 (2019-nCoV) (SARS-CoV-2), UniProt P0DTD1)
Assay type: biochemical
Conditions: read-out: IC50 (μM), inhibition of SARS-Cov-2 M^pro; Table 4

Cc1ocnc1COc1cc(Cl)cc(-c2cc(-c3c[nH]c(=O)[nH]c3=O)cn(-c3cccnc3)c2=O)c1 [Compound 42]
IC50: 0.137 ± 0.022 µM
